Target: purified EZH2 enzyme (Homo sapiens (Human), UniProt Q15910)
Assay: biochemical

Sequences of proteins named here, by UniProt entry; tags and fusion partners are left off. A change or cut given only in a name is not applied to a line headed by its entry.
UniProt Q15910: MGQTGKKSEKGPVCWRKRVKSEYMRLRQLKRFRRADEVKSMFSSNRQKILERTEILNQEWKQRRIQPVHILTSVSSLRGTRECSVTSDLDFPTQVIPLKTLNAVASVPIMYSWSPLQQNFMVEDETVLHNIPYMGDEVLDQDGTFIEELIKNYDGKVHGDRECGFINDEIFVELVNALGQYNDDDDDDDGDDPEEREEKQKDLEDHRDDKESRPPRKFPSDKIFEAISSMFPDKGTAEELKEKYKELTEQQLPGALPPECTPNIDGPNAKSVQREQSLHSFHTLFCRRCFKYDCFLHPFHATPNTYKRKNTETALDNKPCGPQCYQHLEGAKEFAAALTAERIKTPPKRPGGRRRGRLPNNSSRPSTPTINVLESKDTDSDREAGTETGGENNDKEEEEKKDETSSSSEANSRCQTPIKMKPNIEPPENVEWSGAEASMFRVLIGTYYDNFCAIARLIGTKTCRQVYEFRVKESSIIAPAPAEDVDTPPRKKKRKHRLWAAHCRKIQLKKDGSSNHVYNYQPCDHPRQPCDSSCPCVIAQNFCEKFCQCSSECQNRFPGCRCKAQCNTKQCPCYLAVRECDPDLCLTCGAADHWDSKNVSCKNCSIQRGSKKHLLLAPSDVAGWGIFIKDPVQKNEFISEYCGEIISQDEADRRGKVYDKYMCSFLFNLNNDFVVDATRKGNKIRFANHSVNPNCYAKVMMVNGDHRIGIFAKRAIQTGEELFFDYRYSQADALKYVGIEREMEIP

`COC(c1cc(Cl)c2c(c1Cl)C(=O)N(Cc1c(=O)[nH]c(C)c3ccoc13)CC2)C1CN(C)C1` (centres unmarked) [Example 10, 7-((5,8-dichloro-7-(methoxy(1-methylazetidin-3-yl)methyl)-1-oxo-3,4-dihydroisoquinolin-2(1H)-yl)methyl)-4-methylfuro[3,2-c]pyridin-6(5H)-one] was tested. Which IC50 did it give?
Its IC50 is 12 nM.

Which IC50 does the source give for `Cc1nnn(C)c1-c1cc(Cl)c2c(c1Cl)C(=O)N(Cc1c(=O)[nH]c(C)c3ccoc13)CC2` [Example 14, 7-((5,8-dichloro-7-(1,4-dimethyl-1H-1,2,3-triazol-5-yl)-1-oxo-3,4-dihydroisoquinolin-2(1H)-yl)methyl)-4-methylfuro[3,2-c]pyridin-6(5H)-one] here?
The IC50 was 10 nM.

Reference: patent US10266542B2 (dated 2019)
